# Measurements published in article PMC12412049 (Journal of controlled release : official journal of the …, 2025).
# Experiments:
# U87MG tumor [1] = assay: PET imaging in U87MG tumor-bearing mice; type: in vivo; details: (%ID/g max delayed ROI - early ROI)/early ROI × 100%
# [2] = In vitro stability of radiolabeled compounds in human serum and PBS; details: incubation with human serum and PBS for 4 h, 24 h and 72 h; iTLC, mobile phase 50 mM EDTA pH 5.5
# U87MG tumor [3] = assay: Biodistribution study in U87MG tumor-bearing mice; type: in vivo; details: 72 h post-injection, γ-counter, n = 3/group, mean ± SD
substance,measurement,setting,value
[^64Cu]Cu-DOTA-c(RGDyK) [[^64Cu]Cu-DR],Retention index (RI),U87MG tumor [1],−46.97% (± 14.82%)
same,In vitro stability (radiochemical purity),[2],remained stable
same,Tumor uptake (biodistribution),U87MG tumor [3],1.87 ± 0.88 %ID/g
